Reference: ChEMBL document CHEMBL5154811, “Discovery of SPH5030, a Selective, Potent, and Irreversible Tyrosine Kinase Inhibitor for HER2-Amplified and HER2-Mutant Cancer Treatment” (J Med Chem, 2022)

Tests used:
Homo sapiens = species on record: Homo sapiens; assay: Selectivity ratio of IC50 for wild type human N-terminal GST tagged EGFR (669 to 1210 residues) expressed in Sf21 insect cells to IC50 for wild type human GST-tagged HER2 (676 to end residues) expressed in baculovirus infected Sf9 cells
[1] = test system: Receptor tyrosine-protein kinase erbB-2 (Homo sapiens), P04626 [D769Y]; assay: Potency index, ratio of pyrotinib IC50 to test compound IC50 for inhibition of HER2 D769Y mutant (unknown origin) incubated for 120 mins in presence of 33P-ATP by P81 ion exchange cellulose chromatography
[2] = test system: Receptor tyrosine-protein kinase erbB-2 (Homo sapiens), P04626 [R896C]; assay: Potency index, ratio of neratinib IC50 to test compound IC50 for inhibition of HER2 R896C mutant (unknown origin) incubated for 120 mins in presence of 33P-ATP by P81 ion exchange cellulose chromatography
[3] = test system: Receptor tyrosine-protein kinase erbB-2 (Homo sapiens), P04626 [D769Y]; assay: Potency index, ratio of neratinib IC50 to test compound IC50 for inhibition of HER2 D769Y mutant (unknown origin) incubated for 120 mins in presence of 33P-ATP by P81 ion exchange cellulose chromatography
[4] = test system: Receptor tyrosine-protein kinase erbB-2 (Homo sapiens), P04626 [V777L]; assay: Potency index, ratio of neratinib IC50 to test compound IC50 for inhibition of HER2 V777L mutant (unknown origin) incubated for 120 mins in presence of 33P-ATP by P81 ion exchange cellulose chromatography
[5] = test system: Receptor tyrosine-protein kinase erbB-2 (Homo sapiens), P04626 [D769H]; assay: Potency index, ratio of pyrotinib IC50 to test compound IC50 for inhibition of HER2 D769H mutant (unknown origin) incubated for 120 mins in presence of 33P-ATP by P81 ion exchange cellulose chromatography
[6] = test system: Receptor tyrosine-protein kinase erbB-2 (Homo sapiens), P04626 [V777L]; assay: Potency index, ratio of pyrotinib IC50 to test compound IC50 for inhibition of HER2 V777L mutant (unknown origin) incubated for 120 mins in presence of 33P-ATP by P81 ion exchange cellulose chromatography
[7] = test system: Receptor tyrosine-protein kinase erbB-2 (Homo sapiens), P04626 [D769H]; assay: Potency index, ratio of neratinib IC50 to test compound IC50 for inhibition of HER2 D769H mutant (unknown origin) incubated for 120 mins in presence of 33P-ATP by P81 ion exchange cellulose chromatography
[8] = test system: Receptor tyrosine-protein kinase erbB-2 (Homo sapiens), P04626 [R896C]; assay: Potency index, ratio of pyrotinib IC50 to test compound IC50 for inhibition of HER2 R896C mutant (unknown origin) incubated for 120 mins in presence of 33P-ATP by P81 ion exchange cellulose chromatography

| Structure (SMILES) | Ratio IC50 (Homo sapiens) | other results |
| --- | --- | --- |
| Cc1cc(Nc2ncnc3cc(O)c(NC(=O)/C=C/[C@H]4CCCN4C)cc23)ccc1Oc1ccc2nccn2c1 | 0.36 |  |
| Cc1cc(Nc2ncnc3cc(O)c(NC(=O)/C=C/[C@H]4CCCN4C)cc23)ccc1Oc1ccn2cnnc2c1 | 3.6 |  |
| CCOc1cc2ncnc(Nc3ccc(Oc4cc5nncn5cn4)c(C)c3)c2cc1NC(=O)/C(F)=C/[C@@H]1CCCN1C | 9.5 |  |
| C=C(F)C(=O)Nc1cc2c(Nc3ccc(Oc4cc5nncn5cn4)c(C)c3)ncnc2cc1OCC | 2.73 |  |
| Cc1cc(Nc2c(C#N)cnc3ccc(NC(=O)/C=C/[C@H]4CCCN4C)cc23)ccc1Oc1cc2nncn2cn1 | 0.29 |  |
| Cc1cc(Nc2ncnc3cc(O)c(NC(=O)/C=C/[C@H]4CCCN4C)cc23)ccc1Oc1ccn2ccnc2c1 | 1.36 |  |
| COCC(=O)NC/C=C/c1ccc2ncnc(Nc3ccc(Oc4cc5nncn5cn4)c(C)c3)c2c1 | 43.3 |  |
| CCOc1cc2ncnc(Nc3ccc(Oc4cc5nncn5cn4)c(C)c3)c2cc1NC(=O)/C(F)=C\[C@H]1CCCN1C | 11.8 |  |
| Cc1cc(Nc2c(C#N)cnc3ccc(NC(=O)/C=C/CN(C)C)cc23)ccc1Oc1cc2nncn2cn1 | 0.33 |  |
| Cc1cc(Nc2ncnc3ccc(NC(=O)/C=C/CN(C)C)cc23)ccc1Oc1cc2nncn2cn1 | 0.75 |  |
| Cc1cc(Nc2ncnc3cc(O)c(NC(=O)/C=C/[C@H]4CCCN4C)cc23)ccc1Oc1cnn2cnnc2c1 | 0.74 |  |
| Cc1cc(Nc2ncnc3cc(O)c(NC(=O)/C=C/[C@H]4CCCN4C)cc23)ccc1Oc1ccn2ncnc2c1 | 1.95 |  |
| Cc1cc(Nc2ncnc3cc(O)c(NC(=O)/C=C/[C@H]4CCCN4C)cc23)ccc1Oc1cnc2ccnn2c1 | 0.43 |  |
| Cc1cc(Nc2ncnc3cc(O)c(NC(=O)/C=C/[C@H]4CCCN4C)cc23)ccc1Oc1cc2nccn2cn1 | 1.05 |  |
| Cc1cc(Nc2ncnc3ccc(NC(=O)/C=C/[C@H]4CCCN4C)cc23)ccc1Oc1cc2nncn2cn1 | 0.85 |  |
| CCOc1cc2ncnc(Nc3ccc(Oc4cc5nncn5cn4)c(C)c3)c2cc1NC(=O)/C(F)=C\[C@@H]1CCCN1C | 7.05 |  |
| CCOc1cc2ncnc(Nc3ccc(Oc4cc5nncn5cn4)c(C)c3)c2cc1NC(=O)/C=C/[C@H]1CCCN1C | 0.81 |  |
| C=CC(=O)Nc1cc2c(Nc3ccc(Oc4cc5nncn5cn4)c(C)c3)ncnc2cc1OCC | 0.76 |  |
| CCOc1cc2ncnc(Nc3ccc(Oc4cc5nncn5cn4)c(C)c3)c2cc1NC(=O)/C(F)=C/[C@H]1CCCN1C | 2.32 | Ratio IC50 [1]: 4.3; Ratio IC50 [2]: 3.1; Ratio IC50 [3]: 3.1; Ratio IC50 [4]: 3.1; Ratio IC50 [5]: 4.3; Ratio IC50 [6]: 4.3; Ratio IC50 [7]: 3.1; Ratio IC50 [8]: 4.3 |
